Experimental data taken from patent publication US20050020576A1, “Kappa agonist compounds and pharmaceutical formulations thereof” (priority 1996, published 2005).

Test system: formalin-induced flinching
Test: Formalin-induced nociception, late (tonic) phase flinching
Assay type: in vivo, male Sprague-Dawley rats
Conditions: at 300 μg

For `CN(C(=O)Cc1cccc(C(F)(F)F)c1[N+](=O)[O-])[C@@H]1CCCC[C@H]1N1CCCC1.Cl` (racemic), the “Late Phase Formalin % @ 300 μg” value was 86% @ 300 μg.
